Earlier results on five compounds are cited in patent US20260174880A1.

Data set [1] addresses T1, PDK1 (Homo sapiens, UniProt O15530). To be noted: read-out: AC…; the 35th table; cited from earlier work.
Data set [2] concerns the target T1, PDK1. The following applies: cited from earlier work; for T…: the 35th table c7.

As to `O=C(O)/C=C(/CCc1ccc(F)cc1)c1ccccc1`, in data set [1], the EC50 is 41 µM. Turning to `O=C(O)/C=C(/CCc1cccc(Cl)c1)c1ccccc1`, in data set [1], the EC50 is 9.5 µM. Turning to `O=C(O)/C=C(/CCc1c[nH]c2ccccc12)c1ccccc1`, the EC50 in data set [1] was 7.6 µM. In addition, the “T…” value in data set [2] is listed as 2.60 kcal/mol. Besides, the “…H…” value in data set [2] (the 35th table c9) is reported as 80.8%. Consider `O=C(O)/C=C(/CCc1ccc(C(F)(F)F)cc1)c1ccccc1`, for which, in data set [1], the EC50 was 7.1 µM. In the case of `O=C(O)/C=C(/CCc1ccc(Br)cc1)c1ccccc1`, the EC50 in data set [1] was 9.8 µM. Also, in data set [2], the “T…” value is 3.20 kcal/mol.
